By UniProt entry, the sequences of proteins in these tests, tags left out.
UniProt Q07820, whole entry: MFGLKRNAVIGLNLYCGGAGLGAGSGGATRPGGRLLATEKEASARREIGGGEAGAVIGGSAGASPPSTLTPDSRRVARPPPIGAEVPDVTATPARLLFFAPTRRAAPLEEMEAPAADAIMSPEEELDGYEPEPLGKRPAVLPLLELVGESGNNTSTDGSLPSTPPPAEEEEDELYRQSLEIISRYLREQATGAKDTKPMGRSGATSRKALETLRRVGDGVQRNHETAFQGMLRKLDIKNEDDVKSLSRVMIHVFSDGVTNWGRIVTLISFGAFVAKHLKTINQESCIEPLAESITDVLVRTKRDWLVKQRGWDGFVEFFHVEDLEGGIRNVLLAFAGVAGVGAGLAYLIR
UniProt Q07817, whole entry: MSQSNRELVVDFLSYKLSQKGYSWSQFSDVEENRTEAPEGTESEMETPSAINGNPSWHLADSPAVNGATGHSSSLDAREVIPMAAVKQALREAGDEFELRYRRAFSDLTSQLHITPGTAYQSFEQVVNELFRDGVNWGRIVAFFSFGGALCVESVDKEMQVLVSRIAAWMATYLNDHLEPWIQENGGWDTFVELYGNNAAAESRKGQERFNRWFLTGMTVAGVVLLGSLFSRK

According to patent US10053498B2, “Compositions comprising serum albumin and p53 peptides fusion proteins” (University of the Sciences of Philadelphia, priority 2014, dated 2018):

How the values were obtained:
cytochrome C = conditions: increasing amounts, Hela, SJSA-1 and MDA-MB-231 cells
MDM2 = assay: Western blot and densitometry of MDM2 protein in SJSA-1 cells; format: cell-based; conditions: 10 μM, 24 hrs, densitometry
Description: (§1) SJSA-1 cells were lysed in buffer containing 20 mM Tris-HCl, 50 mM NaCl, 0.05% Triton X-100, and protease inhibitor cocktail. […] Mixtures were then allowed to incubate for 1 hour at RT.

Hela cells = assay: CyQuant cytotoxicity assay in Hela cells; format: cell-based; conditions: 24 hrs, relative to rHSA-treated cells; nutlin 10 μM, ABT-263 2.5 μM (FIG. 13)
[1] = Gel shift assay of rHSA/FA-FITC complex formation; format: binding; conditions: compared among rHSA, rHSA-P53i and rHSA-PMI (FIG. 6A)
Description: All recombinant albumins were defatted following a previous publication. FA-FITC was synthesized by mixing 1× 1-Hexadecylamine and 2× N,N-Diisopropylethylamine (Sigma) followed by addition of 1×NHS-Fluorescein (Thermo Scientific). This reaction was carried out overnight, protected from light. Products were then purified by HPLC and identified by MS. For experiments designed to detect FA/HSA complex formation, rHSA (30 pmol, dissolved in 1×PBS) was incubated with or without FA-FITC at desired molar ratios and then separated by 0.5×TBS PAGE. Due to the incorporation of fluorescent molecules, HSA bound by FA-FITC in gel can be visualized under UV. Assays to determine the degree of displacement of FA-FITC were performed by adding an excess amount of unlabeled FA to pre-formed rHSA/FA-FITC complexes, at the indicated molar ratios. Reactions were conducted in PBS containing 10% glycerol at room temperature for 30 minutes. The products were separated using non-denaturing 0.5×TBS PAGE and then visualized under 305 nm UV. Experiments to determine the effect of the presence of serum on HSA/FA complexes were conducted using pre-formed biotin-rHSA/FA-FITC complexes. […] Next, samples were centrifuged to pull down biotin-HSA/FA-FITC and a portion of each supernatant was analyzed using 0.5×TBS PAGE as above.

p53 = assay: Western blot and densitometry of p53 protein in SJSA-1 cells; format: cell-based; conditions: 10 μM, 24 hrs, densitometry (FIG. 5 legend)
Description: as §1

[2] = test system: mitochondria in SJSA-1 and Hela cells; assay: Mitochondrial co-localization by fluorescence microscopy; format: cell-based; conditions: 5 μM FITC-labeled protein
Description: Mitochondrial and nuclear staining was performed using MitoTracker Deep Red (red) and Hoechst 33342 (blue), and the cells were then subjected to immunofluorescence microscopy. […] This may be consistent with localization of serum albumin with lysosomal system or secretory apparatus as has been previously seen (Yokota and Fahimi, Proceedings of National Academy of Sciences of the United States of America, 78: 4970-4974, 1981; Baghdiguian et al., Cancer Letters 101179-84, 1996). Despite efficient rHSA uptake in all conditions, mitochondrial co-localization was not observed in cells treated with rHSA (A and C).

MDA-MB-231 cells = assay: CyQuant cytotoxicity assay in MDA-MB-231 cells; format: cell-based; conditions: 24 hrs, relative to rHSA-treated cells; nutlin 10 μM, ABT-263 2.5 μM (FIG. 13)
SJSA-1 cells [3] = assay: Confocal microscopy of cellular uptake of FITC-labeled rHSA proteins and rHSA/FA-FITC complexes; format: cell-based; conditions: 5 μM FITC-labeled protein; for uptake into SJSA-1 cells: 1% FBS, 24 hours
Description: On day 1, SJSA-1 cells were seeded in 6-well plates, at a density of 80,000 cells per well, and allowed to attach overnight. Treatment media containing 1% FBS plus 5 μM FITC-labeled rHSA (FITC-rHSA), FITC-rHSA-P53i or FITC-rHSA-PMI was added to wells on day 2 and allowed to incubate for 24 hours. For experiments to examine the internalization activity of FA-FITC-modified rHSA, SJSA-1 cells were plated as described above. On day 2, rHSA fusion proteins (dissolved in 1×PBS) were incubated with FA-FITC at a 1:2 molar ratio (rHSA:FA-FITC; 5 μM:10 μM) to allow formation of rHSA/FA-FITC complexes. Reactions were conducted in PBS at room temperature for 30 minutes, prior to dilution in RPMI media (without FBS) and addition to wells. Following a 24 hour incubation period, cells were trypsinized, re-plated onto coverslips and allowed to re-attach for 2 hours. Upon re-attachment, cells were washed 3× with PBS and maintained in phenol red-free media. For visualization, imaging was performed using a Nikon TiE (Eclipse) confocal microscope with a CSU-X spinning disk confocal scan head (Yokogawa), a linear encoded x, y robotic stage (ASI Technologies, Inc.), equipped with a multi-bandpass dichromatic mirror and bandpass filters (Chroma Technology Corp.) in an electronic filter wheel for selection of FITC. 488 nm laser illumination was provided by a 50 mW monolithic laser combiner (MLC400, Agilent Technologies) and images were acquired using a 60×1.40 NA objective and the Clara interline CCD camera (Andor Technology).

SJSA-1 cells [4] = assay: CyQuant cytotoxicity assay in SJSA-1 cells; format: cell-based
Description: Osteosarcoma SJSA-1 cells (ATCC) were grown in RPMI media containing 10% FBS. Cytotoxicity assays were performed using SJSA-1 cells plated in 24- or 96-well plates at 20,000 or 5,000 cells per well, respectively. Cells were allowed to attach overnight. All treatments were added on day 2 in RPMI media containing 1% FBS plus the equivalent amounts of 1×PBS buffer. Unless otherwise indicated, cells were exposed to treatment media for 24 hours, at which time cytotoxicity was measured using the fluorometric CyQuant assay (Invitrogen, C35006) or the fluorometric Homogeneous Caspase assay (Roche, 03005372001), according to the manufacturer's instructions, for detection of apoptosis. All results were plotted relative to rHSA- or where indicated, rHSA/FA-FITC-treated cells.

Mcl-1 = Mcl-1 (Homo sapiens, UniProt Q07820); conditions: MDA-MB-231, SJSA-1 or Hela whole cell lysates
Bcl-xL = Bcl-xL (Homo sapiens, UniProt Q07817); conditions: MDA-MB-231, SJSA-1 or Hela whole cell lysates

Row | Substance | amount of cytochrome C in the cytoplasmic fraction (cytochrome C) | change in MDM2 protein expression (MDM2) [fold] | cell death in Hela cells (p53 under-expressing) (Hela cells) | degree of FA binding [1] | p53 accumulation above control wells (p53) | co-localization with mitochondria [2] | cell death in MDA-MB-231 cells (p53 negative) (MDA-MB-231 cells) | uptake into SJSA-1 cells (SJSA-1 cells [3]) | uptake compared to rHSA (FITC staining of vesicular cargo) (SJSA-1 cells [3]; 24-hour incubation) | cell death (SJSA-1 cells [4]; 24-hour treatment, relative to 10 μM rHSA-treated cells (FIG. 4A)) | cell death in SJSA-1 cells (p53 positive) (SJSA-1 cells [4]; 24 hrs, relative to rHSA-treated cells, nutlin 10 μM (FIG. 13)) | binding to Mcl-1 (pull-down) (Mcl-1) | binding to Bcl-xL (pull-down) (Bcl-xL)
1 | rHSA-P53i: recombinant HSA fused at its C-terminal, via a DEVDG caspase cleavage linker, to wild type p53 peptide ETFSDLWKLLPE (SEQ ID NO: 1) | increased in the cytoplasmic fraction in a dose dependent manner | 1.1 | induced cell death | similar | 1.5 orders of magnitude | efficiently co-localized | induced cell death | taken up | significantly greater uptake | approximately 60% | induced cell death | – | –
2 | rHSA: recombinant human serum albumin without fused peptide, used as control protein | – | – | – | similar | – | not observed | – | taken up | – | – | – | but not | but not
